Literature values, collected in patent US20050255458A1, “Drug discovery assays based on the biology of chronic disease” (priority 2002, published 2005).

Tests used:
[1] = target: T1, PTP1B (Homo sapiens, UniProt P18031); conditions: Huyer 1997; cited from earlier work
T1 sequence (P18031 1-435): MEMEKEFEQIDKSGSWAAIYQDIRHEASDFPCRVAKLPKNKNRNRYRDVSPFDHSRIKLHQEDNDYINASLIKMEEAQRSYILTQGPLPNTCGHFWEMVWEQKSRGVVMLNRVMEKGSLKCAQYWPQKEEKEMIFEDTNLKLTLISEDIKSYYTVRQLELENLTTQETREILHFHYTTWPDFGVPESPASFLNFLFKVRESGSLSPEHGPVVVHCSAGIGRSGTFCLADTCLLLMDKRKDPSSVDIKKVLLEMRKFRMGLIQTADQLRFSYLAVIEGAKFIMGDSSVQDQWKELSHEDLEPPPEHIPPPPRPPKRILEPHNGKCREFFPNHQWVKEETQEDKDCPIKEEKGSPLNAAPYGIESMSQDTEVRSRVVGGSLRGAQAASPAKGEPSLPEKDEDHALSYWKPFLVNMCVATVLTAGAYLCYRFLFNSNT

[2] = test system: TF; conditions: 24 hours; cited from earlier work
[3] = test system: B7-CD28/CD152 costimulatory pathway; conditions: four intravenous infusions, 26-wk; cited from earlier work
[4] = test system: AR gene; conditions: cited from earlier work
[5] = test system: ERK; conditions: cited from earlier work

## [O]=[V]([O-])([O-])[O-] [vanadate, Vanadate (VO4^−3)]
[1]
  PTP1B activity: inhibition

## AGE-alb: advanced glycation end products albumin
[2]
  TF mRNA: increase in TF mRNA

## CTLA4Ig: soluble chimeric protein CTLA4Ig (BMS-188667)
[3]
  clinical outcome in psoriasis vulgaris: Clinical improvement

## FSH: follicle-stimulating hormone
[4]; 2-4 hours treatment
  transcription rate of AR endogenous gene (run-on): no marked changes
[4]; Sertoli cells, 21 day old rats, 500 ng/ml, 60 minutes
  AR mRNA: increase in AR mRNA
[5]; Sertoli cells, 19-day-old rats, 100 ng/ml, 15 minutes
  ERK phosphorylation: inhibition of ERK phosphorylation
[5]; oocytes and granulosa cells, dose dependent
  ERK phosphorylation: stimulates ERK phosphorylation

Where two headings read alike, the source gives them in different places.
